# Binding of CDR-mutated scFvs to a peptide of the spike HR2 region

Reference: Engelhart et al. 2022, doi:10.1038/s41597-022-01779-4. File: FLAb, binding data.

Antigen: PDVDLGDISGINAS, a 14-residue peptide of the SARS-CoV-2 spike HR2 region.

Parent scFv Ab-95: VH joined to VL by a 15-residue (Gly4Ser)3 linker. Changes lie in the light chain CDRs alone.
VH: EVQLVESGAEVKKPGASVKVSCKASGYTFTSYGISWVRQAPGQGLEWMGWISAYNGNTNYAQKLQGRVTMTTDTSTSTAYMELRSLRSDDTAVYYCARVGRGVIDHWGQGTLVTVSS
VL: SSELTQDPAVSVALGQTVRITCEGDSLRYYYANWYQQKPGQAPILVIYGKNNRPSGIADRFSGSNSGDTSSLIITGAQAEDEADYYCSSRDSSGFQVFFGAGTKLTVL

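The starting antibody came from a phage panning campaign against this peptide. The library (AAYL52) carries one to three amino acid substitutions per variant, with no insertions or deletions. Affinity was read by AlphaSeq, a pooled yeast mating assay with surface-displayed partners. Pairs that bind mate more often; barcode pairs of the diploids are counted by sequencing. Read counts were normalised to the haploid input and turned into Kd by a linear fit to BCL2-family pairs of known affinity, for each replicate. The assay was run in three technical replicates.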

Positions count from residue 1 of the parent VL; E23F puts F in place of E.
Every variant below is changed at L27 of the VL (sequential numbering).
Values are log10 of the apparent Kd in nM; lower means stronger binding.
Replicates are averaged; those with no signal do not enter the mean.
An entry "nd" has no value in the source: the pair was not observed among the diploids in any replicate. This suggests poor binding but is not conclusive.
Nonspecific signal, from three strains lacking the peptide, appeared in 28% of pairings of library AAYL52, centred on 3.91 (5% of these signals below 2.90); values are not corrected for it. The control count says in how many pairings with the empty strains this scFv gave a signal.

| changes | mean, log10 nM | replicates with signal | signal with controls |
|---|---|---|---|
| E23F L27M Y30T | 1.48 | 3 of 3 | 5 of 9 |
| D25F L27E S89H | 2.66 | 1 of 3 | 1 of 9 |
| L27H K50C V97E | 4.72 | 1 of 3 | 6 of 9 |
| L27E S93N F95G | 5.34 | 2 of 3 | 3 of 9 |
| G24I L27W R90P | nd | 0 of 3 | 3 of 9 |
| L27I P54L D91M | 4.43 | 2 of 3 | 1 of 9 |
| L27K R53K G94I | 5.24 | 2 of 3 | 3 of 9 |
| L27A D91P V97K | 3.71 | 1 of 3 | 3 of 9 |
| L27F Y29S Y31K | 3.18 | 2 of 3 | 1 of 9 |
| L27V A32E R53M | 3.85 | 2 of 3 | 0 of 9 |
| G24E L27C P54R | nd | 0 of 3 | 1 of 9 |
| L27V R90P S92F | 3.14 | 2 of 3 | 4 of 9 |
| L27T Y29F R90D | nd | 0 of 3 | 2 of 9 |
| E23A L27V N52D | 3.13 | 3 of 3 | 1 of 9 |
| L27C | 3.83 | 2 of 3 | 4 of 9 |
| E23D L27K S55E | 3.29 | 1 of 3 | 3 of 9 |
| G24D L27C R53V | 3.98 | 1 of 3 | 2 of 9 |
| L27A Y31C Q96V | 3.61 | 3 of 3 | 4 of 9 |
| S26H L27N Y30N | 1.57 | 3 of 3 | 4 of 9 |
| L27H K50N S55C | 4.21 | 1 of 3 | 2 of 9 |
| L27Q Y29M S88A | 3.20 | 3 of 3 | 6 of 9 |
| L27N Y31S S92I | 2.94 | 3 of 3 | 1 of 9 |
| L27G Y30F Y31L | 1.95 | 1 of 3 | 1 of 9 |
| L27F S89W S92H | nd | 0 of 3 | 0 of 9 |
| D25Y L27D F98Y | 3.25 | 3 of 3 | 3 of 9 |
| G24D L27Q G49A | 4.20 | 2 of 3 | 1 of 9 |
| L27G Y30R G49C | 5.15 | 2 of 3 | 4 of 9 |
| E23F G24N L27N | 4.89 | 2 of 3 | 5 of 9 |
| L27I N33S N52K | nd | 0 of 3 | 1 of 9 |
| G24E L27V D91Y | nd | 0 of 3 | 3 of 9 |
| L27V R28C | 4.51 | 2 of 3 | 3 of 9 |
| L27A N51G R90L | 3.94 | 2 of 3 | 5 of 9 |
| S26A L27V N52F | 3.09 | 3 of 3 | 1 of 9 |
| L27F A32I F98L | 3.53 | 3 of 3 | 3 of 9 |
| L27Y Y31P G49I | 3.85 | 2 of 3 | 4 of 9 |
| G24M L27K R28I | nd | 0 of 3 | 2 of 9 |
| G24T L27P S55I | nd | 0 of 3 | 1 of 9 |
| L27E N51C F95M | 4.40 | 3 of 3 | 4 of 9 |
| E23K L27I D91R | 4.67 | 1 of 3 | 2 of 9 |
| L27H A32F G94Y | 3.40 | 1 of 3 | 2 of 9 |
| L27H Y30T G49V | nd | 0 of 3 | 2 of 9 |
| L27A N52K S55D | 3.51 | 3 of 3 | 4 of 9 |
| S26L L27Q R53I | 4.64 | 3 of 3 | 3 of 9 |
| L27T N33V | 2.03 | 3 of 3 | 4 of 9 |
| L27F Y30L N52Y | nd | 0 of 3 | 2 of 9 |
| L27C R28Y N51E | 2.82 | 3 of 3 | 1 of 9 |
| E23R L27A S55A | 1.23 | 3 of 3 | 3 of 9 |
| L27M N33V S93W | 3.74 | 1 of 3 | 3 of 9 |
| L27A N33Y | 4.68 | 1 of 3 | 3 of 9 |
| L27W A32H | nd | 0 of 3 | 1 of 9 |
| L27P Y31R Q96S | 5.54 | 1 of 3 | 2 of 9 |
| L27W N33F V97G | 4.05 | 1 of 3 | 4 of 9 |
| G24E L27D S55Q | 3.85 | 2 of 3 | 2 of 9 |
| L27P N33G K50E | nd | 0 of 3 | 0 of 9 |
| L27M R53S F95W | 3.30 | 2 of 3 | 5 of 9 |
| L27K N51F S55G | 4.43 | 1 of 3 | 4 of 9 |
| L27K G94N | nd | 0 of 3 | 0 of 9 |
| L27H F95H V97M | 4.04 | 2 of 3 | 5 of 9 |
| D25Q L27H G94F | 3.43 | 3 of 3 | 4 of 9 |
| L27H Y30W | 3.03 | 3 of 3 | 5 of 9 |
| L27V D91C Q96I | 3.51 | 3 of 3 | 2 of 9 |

Again, the first 4 entries without any signal:

changes,"mean, log10 nM",replicates with signal,signal with controls
G24I L27W R90P,nd,0 of 3,3 of 9
G24E L27C P54R,nd,0 of 3,1 of 9
L27T Y29F R90D,nd,0 of 3,2 of 9
L27F S89W S92H,nd,0 of 3,0 of 9